The structures appear in SMILES notation. The entries are a selection whose mix differs from that of the whole data set. Some results for these compounds are left out of this collection, so the calls shown say nothing about other tests. Calls of active or inactive are those of the source.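 The calls were made as follows: active = compounds that cut the binding signal by more than half at the single screening dose; inactive = the rest.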

Protein sequences, listed by entry. Tags and fused reporters are not part of them.
UniProt Q07820, whole entry: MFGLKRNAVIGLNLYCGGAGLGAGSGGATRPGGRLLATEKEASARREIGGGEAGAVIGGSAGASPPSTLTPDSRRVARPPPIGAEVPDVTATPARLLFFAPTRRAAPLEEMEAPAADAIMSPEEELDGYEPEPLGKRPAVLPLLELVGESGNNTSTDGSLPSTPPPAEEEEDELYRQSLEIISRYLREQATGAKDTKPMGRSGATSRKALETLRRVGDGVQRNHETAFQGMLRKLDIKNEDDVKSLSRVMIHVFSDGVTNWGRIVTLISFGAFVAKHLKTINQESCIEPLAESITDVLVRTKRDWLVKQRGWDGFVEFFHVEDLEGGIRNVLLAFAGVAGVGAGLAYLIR

The inhibition is the drop in the measured response relative to a control, in per cent.

This experiment addresses Induced myeloid leukemia cell differentiation protein Mcl-1 (Homo sapiens) (UniProt Q07820). Put plainly: disruptors of Mcl-1 and Bid BH3 peptide – biochemical, TR-FRET, 1536-well, primary screen (AID 1021).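 Also: His-tagged Mcl-1 with europium anti-His antibody binding Bid BH3 peptide; 0% = Mcl-1 plus peptide wells and 100% = peptide-only wells.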 The following applies: TR-FRET Mcl-1/Bid-Dy647 peptide binding, at 21.7 µM, hits give high values.
With `O=C(NCC1(N2CCCCC2)CCCCC1)c1cc([N+](=O)[O-])ccc1Cl`, the inhibition is inactive: -59.5%.

With `CC(C)N1C(=O)CC2(CCN(CCOC(=O)C(O)(c3ccccc3)c3ccccc3)CC2)C1=O`, the inhibition was inactive: -1.96%.

On to `CCN(CC)CC(C)C(C)OC(=O)C(O)(c1ccccc1)c1ccccc1` (stereo unspecified), for which the inhibition was inactive: -24.1%.

For the compound `CN(C)C1CCCC1OC(=O)C(O)(c1ccccc1)c1ccccc1` (stereo unspecified), the inhibition was inactive: 5.22%.

As to `Cc1ccccc1C(=O)NCC1(N2CCCCC2)CCCCC1`, the inhibition was inactive: -20.6%.

Regarding `C=CCN1CCN(CCOC(=O)C(O)(c2ccccc2)c2ccccc2)CC1`, the inhibition is inactive: 0.44%.

With `CCN1CCCC(OC(=O)C2(O)c3ccccc3C=Cc3ccccc32)C1` (stereo unspecified), the inhibition is inactive: -8.4%.

Consider `COc1cccc(C(=O)NCC2(N3CCCCC3)CCCCC2)c1`, for which the inhibition is inactive: -22.5%.

Regarding `O=C(OC1CN2CCC1CC2)C(CO)(c1ccccc1)c1ccccc1` (stereo unspecified), the inhibition is inactive: -5.73%.

`COc1ccc(Br)c(C(=O)NCC2(N3CCCCC3)CCCCC2)c1`: the inhibition was inactive: -2.7%.

Turning to `CN(C)c1cccc(C(=O)NCC2(N(C)C)CCCCC2)c1`, the inhibition is inactive: -31.3%.

The values are drawn from PubChem BioAssay AID1021 (Emory University Molecular Libraries Screening Center, 2008).
